Test system: human adult astrocytes
Test: cDNA array profiling of cytokine, chemokine and growth factor genes in human adult astrocytes
Assay type: cell-based
Details: 200 U/mL IFNβ control, data not shown
Procedure: Adult human astrocytes from post-mortem subcortical white matter samples were isolated and cultured as previously described (Bsibsi et al., J Neuropath Exp Neurol 61:1013-1021 [2002]). As determined by specific staining for cellular markers for astrocytes (glial fibrillary acidic protein; GFAP) and microglia (CD68) astrocyte cultures were essentially homogeneous; as a rule all cells expressed GFAP and none of them expressed CD68. When indicated astrocytes were stimulated with 50 μg/mL poly I:C (Amersham Pharmacia Biotech, Piscataway, N.J.) or 200 ng/mL LPS (Sigma-Aldrich, Steinheim, Germany) to activate TLR3 and TLR4, respectively. These doses were selected on the basis of maximum effects in astrocytes. […]
Analysis of the mRNA profile of astrocytes was performed by hybrid selection of ^32P-labeled cDNA on Clontech human cytokine/chemokine Atlas® arrays as previous described (Meeuwsen et al., Glia 43:243-253 [2003]). Hybridization signals for each of the 268 cytokine, chemokine and growth factor (receptor) genes were calculated as the mean of duplicate measurements, corrected for background intensity and quantified using software provided by the manufacturer. Relative expression was calculated by dividing these hybridization signals by the mean signal for all nine housekeeping reference genes on the corresponding array. […]

B1: IFN-β: interferon beta, therapeutic agent in multiple sclerosis (protein, UniProt P01574 22-187, looked up)
Interferon beta: MSYNLLGFLQRSSNFQCQKLLWQLNGRLEYCLKDRMNFDIPEEIKQLQQFQKEDAALTIYEMLQNIFAIFRQDSSSTGWNETIVENLLANVYHQINHLKTVLEEKLEKEDFTRGKLMSSLHLKRYYGRILHYLKAKEYSHCAWTIVRVEILRNFYFINRLTGYLRN
modifications: interferon beta-1a (Avonex)
notes: interferon beta, therapeutic agent in multiple sclerosis
- induction of CXCL8 and CXCL2: strongly induced

From patent US20090253622A1, “USE OF TLR3 AGONISTS FOR THE TREATMENT OF NEURODEGENERATIVE DISORDERS” (Nederlandse Organisatie voor toegepast - …, priority 2006, published 2009)
